Earlier results on one substance are cited in PMC10772121.

Protein sequences, listed by entry. Tags and fused reporters are not part of them. Residues count along the entry.
UniProt P43626, 22-245: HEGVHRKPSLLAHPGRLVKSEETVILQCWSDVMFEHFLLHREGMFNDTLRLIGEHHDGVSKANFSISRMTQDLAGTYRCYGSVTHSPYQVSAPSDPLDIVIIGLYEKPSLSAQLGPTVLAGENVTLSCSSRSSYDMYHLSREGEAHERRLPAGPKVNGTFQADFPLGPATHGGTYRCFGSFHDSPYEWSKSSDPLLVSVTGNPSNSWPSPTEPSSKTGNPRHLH
UniProt P43628, 22-245: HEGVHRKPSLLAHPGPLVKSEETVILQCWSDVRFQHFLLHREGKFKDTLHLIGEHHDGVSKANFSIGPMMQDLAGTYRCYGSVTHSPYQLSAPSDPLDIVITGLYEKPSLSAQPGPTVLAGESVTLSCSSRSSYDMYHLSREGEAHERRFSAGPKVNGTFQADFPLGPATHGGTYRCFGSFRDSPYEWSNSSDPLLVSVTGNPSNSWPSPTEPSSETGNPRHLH

For orientation: Kd means the concentration at which binding is half-saturated.

Data set [1] deals with KIR2DL1 (Homo sapiens) (UniProt P43626). Nature of the data set: ELISA. In general terms: In an ELISA, binding on a coated surface is turned into a signal by an enzyme label.
The target of data set [2] is KIR2DL3 (Homo sapiens) (UniProt P43628). Nature of the data set: ELISA.
Data set [3] deals with KIR2DL1 (Homo sapiens) (UniProt P43626). The experiment in a line: SPR. For orientation: SPR reads the build-up and loss of mass on a sensor chip optically.
In data set [4] the target is KIR2DL3 (Homo sapiens) (UniProt P43628). The experiment in a line: SPR.

Take Lirilumab: the Kd was 0.05 nM with KIR2DL1 (Homo sapiens) [1], 0.02 nM in the data set with KIR2DL3 (Homo sapiens) [2], 10.3 nM with KIR2DL1 (Homo sapiens) [3] and 3.5 nM in the data set with KIR2DL3 (Homo sapiens) [4].
